Experimental data as given in patent EP2150620B1, “Method for preparing C-6 phosphorylated D-aldohexoses and C-6 phosphorylated D-aldohexose derivatives, and new C-6 phosphorylated D-aldohexose derivatives” (Libragen, priority 2007, dated 2008).

Test system: polyphosphate-glucose phosphotransferase activity
Assay: C-6 phosphorylation of acceptors with polyphosphate by an enzymatic extract, detected by thin layer chromatography (Examples 1 and 2)
Conditions: complete reaction medium, acceptor 150 mM, sodium hexametaphosphate 7.5 mM, 0.26 U/ml, 24 hours at 30°C

| Compound | Result (24 hours incubation): formation of the 6-phosphate of the acceptor (analysis conditions A) | Result (24 hours incubation): formation of the 6-phosphate of the acceptor (analysis conditions B) |
| --- | --- | --- |
| CCS[C@@H]1O[C@H](CO)[C@@H](O)[C@H](O)[C@H]1O [Ethyl 1-thio-β-D-glucoside] | A new substance is formed exclusively in the complete reaction medium. It is 1-thio-β-D-ethyl 1-thio-glucose-6-phosphate. |  |
| O=CC[C@@H](O)[C@H](O)[C@H](O)CO [2-deoxy-D-glucose] | A new substance is formed exclusively in the complete reaction medium. It is 2-deoxy-D-glucose-6-phosphate. In addition, the use of a commercial preparation (Sigma-Aldrich D8875) confirmed the presence of 2-deoxy-D-glucose-6-phosphate. |  |
| O=C[C@@H](O)[C@@H](O)[C@H](O)[C@H](O)CO [D-mannose] | A new substance is formed exclusively in the complete reaction medium. It is D-mannose-6-phosphate. | A new substance is formed exclusively in the complete reaction medium. It is D-mannose-6-phosphate. |
| OC[C@H]1OC[C@H](O)[C@@H](O)[C@@H]1O [1,5-anhydro-D-sorbitol] | A new substance is formed exclusively in the complete reaction medium. It is 1,5-anhydro-D-sorbitol-6-phosphate. |  |
| OC[C@H]1O[C@@H](S)[C@H](O)[C@@H](O)[C@@H]1O [1-thio-β-D-glucose] |  | A new substance is formed exclusively in the complete reaction medium. It is 1-thio-β-D-glucose-6-phosphate. |
| O=C[C@H](O)[C@@H](O)[C@H](O)[C@H](S)CO [5-thio-D-glucose] |  | A new substance is formed exclusively in the complete reaction medium. It is 5-thio-D-glucose-6-phosphate. |
| O=C[C@H](O)[C@H](O)[C@H](O)[C@H](O)CO [D-allose] |  | A new substance is formed exclusively in the complete reaction medium. It is D-allose-6-phosphate. |
| O=S(=O)(O)N[C@H]1C(O)O[C@H](CO)[C@@H](O)[C@@H]1O (stereo partly drawn) [D-glucosamine-2-sulfate] | A new substance is formed exclusively in the complete reaction medium. It is D-glucosamine-2-sulfate-6-phosphate. |  |
| N[C@H](C=O)[C@@H](O)[C@H](O)[C@H](O)CO [D-mannosamine, 2-amino-2-deoxy-D-mannose] | A new substance is formed exclusively in the complete reaction medium. It is D-mannosamine-6-phosphate. |  |
| O=C[C@H](F)[C@@H](O)[C@H](O)[C@H](O)CO [2-deoxy-2-fluoro-D-glucose] | A new substance is formed exclusively in the complete reaction medium. It is 2-deoxy-2-fluoro-D-glucose-6-phosphate. |  |
| CC(=O)N[C@H]1C(O)O[C@H](CO)[C@@H](O)[C@@H]1O (stereo partly drawn) [N-acetyl-D-glucosamine] | A new substance is formed exclusively in the complete reaction medium. It is N-acetyl-D-glucosamine-6-phosphate. |  |
| CO[C@@H]([C@H](O)[C@H](O)CO)[C@@H](O)C=O [3-O-methyl-D-glucose] | A new substance is formed exclusively in the complete reaction medium. It is 3-0-methyl-D-glucose-6-phosphate. |  |
